{"source": "ChEMBL document CHEMBL1142299", "about": "“Coumarin as attractive casein kinase 2 (CK2) inhibitor scaffold: an integrate approach to elucidate the putative binding motif and explain structure-activity relationships” (J Med Chem, 2008)", "experiment": "Inhibition of CK2 in rat liver", "method_in_brief": "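Native CK2 purified from rat liver. Started with kinase, stopped at 10 min with orthophosphoric acid. Read by phosphocellulose filter binding and counting. Three independent experiments, values averaged.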"}
{"smiles": "Cc1c([N+](=O)[O-])c(=O)oc2c([N+](=O)[O-])c(O)c([N+](=O)[O-])cc12", "values": [{"measurement": "IC50", "result": "> 100", "unit": "µM"}]}
